Data taken from patent US11249070B2, “Anti-cancer drug assessment method” (TOPPAN PRINTING CO., LTD., priority 2016, dated 2022).

Test system: HT29
Test: CNT with cetuximab and/or bevacizumab, 2D, spheroid, 3D (Example 4)
Assay type: cell-based, human
Conditions: for CNT (%) Average value / CNT (%) Median value: cetuximab 1 mg/mL and/or bevacizumab 2 μg per well, 72 hours
From the text: Moreover, for comparison, in place of the above cell structures, structures were produced by culturing cancer cells so as to form a single layer in a general culture container (2D method), and spheroids were produced by spheroid culture of a mixture of 2×10^6 NHDF, 3×10^4 HUVEC, and 2×10^4 HT29 (spheroid method). These were similarly cultured in the presence of bevacizumab and cetuximab.

Substance: cetuximab
- CNT (2D cultures and spheroids): about 60%
- CNT (%) Average value (2D): 62.1%
- CNT (%) Median value (2D): 60.5%
- CNT (%) Average value (3D): 70.4%
- CNT (%) Median value (3D): 69.4%
- CNT (%) Average value (Spheroid): 64.9%
- CNT (%) Median value (Spheroid): 61.2%
- CNT (cell structures of the present Example, 3D): low
